US20180008518A1, “MINERALIZATION FLUORIDE COMPOSITIONS” (published 2018)

Assay: Saliva post rinse calcium, inorganic phosphate, fluoride and monofluorophosphate contents

Substance: calcium monofluorophosphate
- Fate of the fluoride species in the oral cavity: remained as monofluorophosphate
